# The entries are a selection whose mix differs from that of the whole data set. Active and inactive are the calls of the source.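 How the source made its calls: active means calcium response B-score plate-corrected fluorescence ratio at least 3 library SD, with starting fluorescence B-score inside 5 SD; inactive means the rest.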
# Amino acid sequences for entries named in this document (tags omitted). A change or cut given only in a name is not applied to a line headed by its entry.
# UniProt Q96LB2: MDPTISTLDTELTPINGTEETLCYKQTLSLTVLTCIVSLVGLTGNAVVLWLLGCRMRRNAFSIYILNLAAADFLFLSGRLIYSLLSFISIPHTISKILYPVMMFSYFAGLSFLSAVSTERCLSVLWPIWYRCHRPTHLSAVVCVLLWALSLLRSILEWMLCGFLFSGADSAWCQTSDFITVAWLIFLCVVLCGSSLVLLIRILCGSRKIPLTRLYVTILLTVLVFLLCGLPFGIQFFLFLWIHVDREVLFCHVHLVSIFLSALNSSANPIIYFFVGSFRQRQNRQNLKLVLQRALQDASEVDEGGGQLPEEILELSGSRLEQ
# Biological target: Mas-related G-protein coupled receptor member X1 (Homo sapiens) (UniProt Q96LB2)
# Test: agonists of human MrgX1 receptor, primary screen, HEK293 cells, Fluo-4 calcium flux (AID 588627)
# Conditions: Fluo-4 calcium fluorescence, agonist mode, at 10 µM, active compounds read high
# How it was run: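 Assay system: stable human MrgX1 HEK293 cell line. Quantity: 15,000 cells per well. Schedule: cells plated overnight, dye loaded 0.5 h 37 °C, 0.5 h room temperature. Detection: Fluo-4 NW calcium-flux fluorescence, kinetic read. Read-out basis: peak-minus-minimum fluorescence over baseline, converted to B scores. Control set: positive and negative control wells on each plate.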
row,SMILES,B-score
1,CN(C)C1(CNC(=O)c2ccc(Cl)c(S(N)(=O)=O)c2)CCCCC1,active: 37.3
2,Cc1c2non([O-])c-2c(C)[n+](=O)[n+]1[O-],active: 40

# Source: PubChem BioAssay AID588627 (Johns Hopkins Ion Channel Center, 2011)
